Laboratory results as given in ChEMBL document CHEMBL3886520, “Orvinol and thevinol derivatives useful in the treatment of depression” (2016).

Chains of the proteins cited; added tags and fusions are not shown.
UniProt P41146, whole entry: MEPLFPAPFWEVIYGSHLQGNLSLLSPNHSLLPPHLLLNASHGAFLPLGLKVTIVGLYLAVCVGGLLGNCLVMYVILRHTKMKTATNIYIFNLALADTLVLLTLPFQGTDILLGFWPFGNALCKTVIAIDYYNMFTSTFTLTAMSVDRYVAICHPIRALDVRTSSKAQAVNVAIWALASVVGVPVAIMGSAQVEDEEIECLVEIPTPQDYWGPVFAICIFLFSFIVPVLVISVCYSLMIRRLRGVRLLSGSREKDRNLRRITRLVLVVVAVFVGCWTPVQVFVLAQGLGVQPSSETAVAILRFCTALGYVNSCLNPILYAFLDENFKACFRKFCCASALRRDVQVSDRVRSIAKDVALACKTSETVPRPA

Target: Nociceptin receptor (Homo sapiens, UniProt P41146)
Assay: Ligand Binding Assays: As Alt et al., 2002. Membranes (20 ug) are incubated in 50 mM Tris-HCl, pH 7.4 with [3H]diprenorphine or [3H]nociceptin in the absence or presence of varying concentrations of test compounds for 60 min in a shaking water bath at 25° C. Nonspecific binding is measured using 10 uM naloxone (MOR, DOR, KOR) or N/OFQ (NOP). Samples are filtered through GF/C glass-fiber filtermats
Conditions: brandel

## CO[C@]12CC[C@@]3(C[C@@H]1[C@](C)(O)c1cccs1)[C@H]1Cc4ccc(O)c5c4[C@@]3(CCN1CC1CC1)[C@H]2O5
  Ki: 34.5 nM
